Data on one substance can be found in US5609897A, “Powdered beverage concentrate or additive fortified with calcium and vitamin D” (priority 1995, dated 1997).

For data set [1] the following is noted: pH 3.5.
The conditions of data set [2]: rat, in vivo, 30240 min; cited from earlier work.

As to Calcium Glycerophosphate [CaGP], in data set [1], the Solubility result was “soluble” and the “Solubility over one month” value was “remained soluble at pH 3.5 for at least one month”. For the same substance, the Relative calcium bioavailability in data set [2] is recorded as 106%.
